Data as given in patent publication US7148204B2, “Antisense modulation of bcl-x expression” (Isis Pharmaceuticala, Inc., priority 1998, dated 2006).
In the oligonucleotide strings, read from the 5' end, every base follows the letter of its sugar. An asterisk marks phosphorothioate; unmarked linkages are phosphodiester. Other units and linkages are bracketed, terminal groups are in braces. A string of capitals states the bases alone. e = 2'-O-(2-methoxyethyl) (MOE); [5mC] = 5-methylcytosine; d = 2'-deoxy (DNA)

Test system: A1, Bad, Bak, bcl-2, G3PDH RNA
Assay: RNA expression of other apoptotic genes and G3PDH in hKn cells
Conditions: RPA / Northern

Question: Which “RNA expression of other apoptotic genes (A1, Bad, Bak, bcl-2) or G3PDH” value does the source give for “15999 (antisense eT*e[5mC]*e[5mC]*e[5mC]*eG*dG*dT*dT*dG*dC*dT*dC*dT*dG*dA*eG*eA*e[5mC]*eA*eT) [compound 15999]” here?
Answer: Its value is “unaffected”.
